# Earlier results as cited in US7906508B2, “3,4-dihydrobenzoxazine compounds and inhibitors of vanilloid receptor subtype 1 (VRI) activity” (Japan Tobacco Inc., priority 2005, dated 2011).
# Sequences of proteins named here, by UniProt entry; tags and fusion partners are left off.
# UniProt O35433, whole entry: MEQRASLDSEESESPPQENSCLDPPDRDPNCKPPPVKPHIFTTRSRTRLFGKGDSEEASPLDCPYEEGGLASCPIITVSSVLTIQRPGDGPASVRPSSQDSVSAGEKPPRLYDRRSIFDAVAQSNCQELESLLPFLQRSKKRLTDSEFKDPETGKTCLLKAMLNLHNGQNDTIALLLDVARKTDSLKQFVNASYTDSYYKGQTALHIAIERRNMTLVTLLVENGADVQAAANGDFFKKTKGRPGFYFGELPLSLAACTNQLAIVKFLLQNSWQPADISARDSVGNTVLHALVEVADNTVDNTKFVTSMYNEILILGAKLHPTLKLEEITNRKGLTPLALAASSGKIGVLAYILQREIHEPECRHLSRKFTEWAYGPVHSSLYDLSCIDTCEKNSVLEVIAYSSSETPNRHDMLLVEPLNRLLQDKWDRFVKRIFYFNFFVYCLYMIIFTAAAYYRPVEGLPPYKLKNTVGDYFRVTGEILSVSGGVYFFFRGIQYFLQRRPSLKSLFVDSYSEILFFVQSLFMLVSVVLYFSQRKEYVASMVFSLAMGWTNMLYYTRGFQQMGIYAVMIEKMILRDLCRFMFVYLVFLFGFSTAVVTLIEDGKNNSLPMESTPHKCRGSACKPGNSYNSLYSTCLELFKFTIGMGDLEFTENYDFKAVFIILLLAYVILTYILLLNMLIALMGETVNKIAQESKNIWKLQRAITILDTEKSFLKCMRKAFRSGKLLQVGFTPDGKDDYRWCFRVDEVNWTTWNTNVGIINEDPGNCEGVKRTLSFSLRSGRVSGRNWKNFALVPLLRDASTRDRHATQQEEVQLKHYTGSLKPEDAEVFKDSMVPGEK
# Target: VR1 (Rattus norvegicus, UniProt O35433)
# Details: J Pharmacol Exp Ther. 2003 July; 306 (1): 377-86; cited from earlier work
smiles,measurement,value
CC(C)(C)c1ccc(NC(=O)N2CCN(c3ncccc3Cl)CC2)cc1 [BCTC],inhibitory activity (value of IC50) of BCTC according to the document,several
